# AlphaSeq binding of Ab-14 heavy chain variants to a spike HR2 peptide

Data: MIT Lincoln Laboratory AlphaSeq set, Li et al. 2023, doi:10.1038/s41467-023-39022-2, as distributed in FLAb.

All variants were tested on one target, the spike HR2 peptide PDVDLGDISGINAS (SARS-CoV-2).

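Phage display of a naive human antibody library on the peptide gave the parent. The variants were designed computationally from a first round of random CDR variants and then made and measured. Group labels follow the data file (Ctrl: baseline library sampled from a position-specific scoring matrix, with some repeated check sequences; Rand: our label for a block that the file lists under HC and that is probably the random mutants of the ten best first-round binders; En: ensemble of fine-tuned language models; GP: Gaussian process model; GPLM: also part of the Gaussian process libraries; HC: hill climbing; Gen: genetic algorithm; Gibbs: Gibbs sampling; a sequence that several methods proposed may carry one label only). Affinity was read by AlphaSeq, a pooled yeast mating assay with surface-displayed partners. The frequency of each diploid, read from paired DNA barcodes, reflects how well the two displayed proteins bind. Read counts were normalised to the haploid input and turned into Kd by a linear fit to BCL2-family pairs of known affinity, for each replicate. There are six technical replicates.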

Parent scFv Ab-14: VH joined to VL by a (GGGGS)3 linker. Changes lie in the heavy chain CDRs alone.
VH: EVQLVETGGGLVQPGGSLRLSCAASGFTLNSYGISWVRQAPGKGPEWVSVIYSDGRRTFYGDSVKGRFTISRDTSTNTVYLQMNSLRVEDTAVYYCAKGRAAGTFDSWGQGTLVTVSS
VL: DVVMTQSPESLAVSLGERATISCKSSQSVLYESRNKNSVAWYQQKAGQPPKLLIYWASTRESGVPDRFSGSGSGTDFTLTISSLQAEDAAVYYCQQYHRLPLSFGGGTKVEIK

Variants are written as CDR1, CDR2 and CDR3 of the heavy chain (limits as in the source). Parent: GFTLNSYGIS, VIYSDGRRTFYGDSVK, GRAAGTFDS. Values are log10 of the apparent Kd in nM; lower means stronger binding. The mean shown is taken over the replicates in which the pair was detected. "no signal" means that the variant was in the library but no mating with the target was seen in any replicate; the authors take this as a sign of poor binding, and no number exists. The range of this assay differs from that of the first round, and the authors advise against merging the two. The authors averaged sequences with at least three values out of six and counted those with two or fewer as poor binders. Of ten entries with the parent sequence, four were seen in most replicates (averages 0.34 to 2.37), three in one and three in none, so single entries are noisy. Nonspecific signal, from three strains lacking the peptide, appeared in 1% of pairings of all heavy chain designs, centred on 2.08 (5% of these signals below 0.84); values are not corrected for it. A sequence that the file lists under several names has all its replicates pooled.

CDR-H1,CDR-H2,CDR-H3,group,"mean, log10 nM",seen in
EFDLNEYGVS,VIYADGHRSFYADHVK,GQVAGIFFM,En_Gibbs,no signal,0 of 6
GFTLDSYGIS,VIYSDGRRTFYDDSVK,GYAAGTFDS,GP_HC,1.22,3 of 6
GFELNSYGIS,VIYADGRRTFYADSVK,GKAAGTFDS,GP_Gen,-0.74,6 of 6
GFDLNEYGIS,VIYADGRRTFYTDSVK,GENAGTFDM,En_HC,-0.35,6 of 6
GFTLESYGIS,VIYSDGERTFYIDSVK,GRRAGEFDS,Ctrl,no signal,0 of 6
GFSLNSYGIS,VIYSDGRRTFYADSVK,GKEAGTFDT,GPLM_Gibbs,-1.22,3 of 6
GFDLNEYGIS,VIYADGMRTAYADNVK,GQNAGTFDI,En_Gen,-0.88,6 of 6
GFDLNSYGIS,VIYSDGRRTAYDDSVK,GQAAGTFDS,GP_HC,-0.22,6 of 6
GFDLNEYGIS,VIYADGKRTFYADSVK,GNQAGTFDI,En_Gen,-0.42,6 of 6
GFTLQSYGIS,VIYSDGRRTFYGDSVK,GRAAGTFWS,Ctrl,no signal,0 of 6
GFDLDEYGIS,VIYADGQRTAYADSVK,GTNAGTFDL,En_Gen,0.12,6 of 6
HFTLNEYGIS,VIYSDGRRTFYGDSVK,GRAAVTFDF,GP_HC,no signal,0 of 6
GFSLNSYGIS,VIYSDGRRTFYADQVK,GRAAGTFDS,GPLM_Gen,0.59,6 of 6
GFNLDEYGIS,VIYADGQRKAYAQHVK,GGGGTDRGI,En_Gibbs,no signal,0 of 6
GFDLNSYGIS,VIYSDGRRTFYADSVK,GRVAGTFDK,GP_Gen,0.14,6 of 6
GFDLNEYGIS,VIYADGSRTFYADSVK,GEAAGTFDL,En_HC,-0.08,6 of 6
MFNLNSYGIS,VIYSDGRRTFYGDSVK,GRNAGTFDS,GP_Gibbs,3.22,1 of 6
GFELNSYGIS,VIYSDGRRTFYGDQVK,GRTAGTFDS,GPLM_Gen,1.07,6 of 6
GENLEEYGIS,VIYADGTRTQYAEKVK,GQQGGFFIK,En_Gibbs,no signal,0 of 6
GFKLEEYGIS,VIYADGQRVAYQDKVK,GKHAGMFDV,En_Gibbs,1.42,3 of 6
GFTLNEYGIS,VIYSDGRRTFYGDSVK,GRAAVTFNK,GP_HC,no signal,0 of 6
KFSLNNYGIS,VIYADGRRTFYGDSVK,GRTAGTFDS,GP_Gibbs,0.51,5 of 6
GFDLDEYGIS,VIYADGMRTVYSDSVK,GNVAGTFDV,En_Gen,-0.86,6 of 6
GFDLNEYGIS,VIYADGMRTAYADSVK,GENAGTFDA,En_Gen,-0.12,6 of 6
EFTLNQYGIS,VIYSDGRRTFYSDSVK,GRAAGFDDS,Rand,0.79,6 of 6
GFDLEDYGIS,VIYADGQRTAYADSVK,GNVAGTFDL,En_Gen,-0.02,6 of 6
GFDLNEYGIS,VIYADGVRTAYADDVK,GGNAGTFDV,En_Gen,-0.10,5 of 6
GFTLNSYGSS,VIYADGRRTFQGDSVK,GRAAGTNKS,Rand,no signal,0 of 6
GFTLQSYGIS,VIYSDGRRTFYGDSVK,GRAAGTFDT,Ctrl,1.14,3 of 6
GFDLNEYGIS,VIYADGRRTFYSDSVK,GEIAGTFDT,En_HC,1.70,2 of 6
GFTLNSYGIS,VIYSDGRRTFYGDSVK,GMEAGTFDT,GPLM_Gen,no signal,0 of 6
GFDLNEYGIS,VIYADGVRTFYADSVK,GEAAGTFDV,En_HC,-0.38,6 of 6
GFDLDEYGIS,VIYADGQRTAYADSVK,GTVAGTFDV,En_Gen,-0.30,2 of 6
GFKIDEYGIS,VIYADGHRTAYSEQVK,GDNMGFMVE,En_Gibbs,no signal,0 of 6
MFDLNSYGIS,VIYSDGRRTFYGDSVK,GQTAGTFDS,GP_Gen,0.87,6 of 6
GFELNDYGIS,VIYSDGRRTFYIDSVK,GRAAGTFDS,GPLM_Gen,0.58,6 of 6
GDNLDEYGIS,VIYADGHRTAYSNPVK,GEYGVVVGD,En_Gibbs,no signal,0 of 6
GFDLEEYGIS,VIYADGERVFYADSVK,GGFDGYKVR,En_Gibbs,1.96,2 of 6
GFNLNEYGIS,VIYADGRRTFYSDSVK,GEAAGTFDK,En_HC,-0.38,6 of 6
GFDLNEYGIS,VIYADGKRTFYADSVK,GNEAGTFDV,En_Gen,-0.35,6 of 6
GFTLNSYGIS,VIYADGRRTFYGDSVK,GRAAGTFKV,GPLM_HC,no signal,0 of 6
GFDLNEYGIS,VIYADGRRTFYADSVK,GNVAGTFFL,En_HC,-0.10,6 of 6
GFDLDEYGIS,VIYADGRRTFYADSVK,GENAGTFDS,En_HC,-0.73,6 of 6
GFSLNSYGIS,VIYSDGRRTAYGDSVK,GQAAGTFDS,GPLM_Gen,1.34,6 of 6
GFDLNEYGIS,VIYADGCRVSYAQNVK,GLLGKLKVV,En_Gibbs,no signal,0 of 6
GFDLNEYGIS,VIYADGMRKAYADSVK,GNQAGTFDM,En_Gen,-0.21,5 of 6
GFNLNEYGIS,VIYADGRRTAYADSVK,GQQAGTFDM,En_HC,-0.51,6 of 6
GFTLNSYGIS,VIYSDGRRTFYTDSVK,GKAAGTFDS,Ctrl+GPLM_Gen,1.75,3 of 12